Test results: ChEMBL document CHEMBL5550090, “Synthesis and biological evaluation of 1H-pyrrolo[3,2-g]isoquinolines” (Bioorg Med Chem, 2024)
Active and inactive are the calls of the source. The calls are words filed in the database; no cut-off is given here.

Assays:
[1] = Selectivity index, ratio of IC50 for recombinant rat DYRK1A kinase domain (1 to 499 residues) expressed in bacteria to IC50 for recombinant human Haspin kinase domain (470 to 798 residues) expressed in bacteria
Homo sapiens = species: Homo sapiens; assay: Selectivity index, ratio of IC50 for human recombinant PIM-1 expressed in bacteria to IC50 for recombinant human Haspin kinase domain (470 to 798 residues) expressed in bacteria
[2] = target: T1, Serine/threonine-protein kinase haspin (Homo sapiens) (UniProt Q8TF76); assay type: cell-based; conditions: U2OS, dose 0.5 µM, time 18.0 hrs
T1 sequence (whole entry): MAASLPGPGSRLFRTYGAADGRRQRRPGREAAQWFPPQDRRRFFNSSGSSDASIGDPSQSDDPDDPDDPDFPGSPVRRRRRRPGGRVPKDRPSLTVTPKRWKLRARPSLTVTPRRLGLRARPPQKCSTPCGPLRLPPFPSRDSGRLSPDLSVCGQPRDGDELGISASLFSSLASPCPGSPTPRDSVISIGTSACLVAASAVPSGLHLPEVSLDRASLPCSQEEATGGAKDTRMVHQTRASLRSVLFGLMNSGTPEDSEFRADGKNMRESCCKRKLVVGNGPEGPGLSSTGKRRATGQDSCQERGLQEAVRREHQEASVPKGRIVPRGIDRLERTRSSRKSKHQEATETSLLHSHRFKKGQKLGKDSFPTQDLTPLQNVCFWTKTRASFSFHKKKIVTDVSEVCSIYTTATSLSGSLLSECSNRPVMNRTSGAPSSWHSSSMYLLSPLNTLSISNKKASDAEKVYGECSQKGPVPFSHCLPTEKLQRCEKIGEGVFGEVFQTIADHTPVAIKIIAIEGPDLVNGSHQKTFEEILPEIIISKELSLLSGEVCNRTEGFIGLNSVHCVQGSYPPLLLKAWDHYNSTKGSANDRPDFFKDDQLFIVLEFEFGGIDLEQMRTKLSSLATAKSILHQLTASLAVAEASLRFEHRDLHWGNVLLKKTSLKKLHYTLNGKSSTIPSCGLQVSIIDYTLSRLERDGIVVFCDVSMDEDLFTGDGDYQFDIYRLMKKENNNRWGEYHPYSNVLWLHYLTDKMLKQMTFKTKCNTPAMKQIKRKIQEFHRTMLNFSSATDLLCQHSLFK

SMILES	Ratio IC50 [1]	other results
CCn1ncc2cc3cnccc3c(N)c21	4	
Ic1c[nH]c2cc3cnccc3cc12	5	
Brc1c[nH]c2cc3cnccc3cc12		Ratio IC50 (Homo sapiens): 5.4
CCCNc1ccc2ncc(-c3ccc4[nH]ncc4c3)n2n1		inhibition [2]: Active
